# Literature values as cited in US6100254A, “Inhibitors of protein tyrosine kinases” (Board of Regents, The University of Texas System, priority 1997, dated 2000).
# Conditions: clearance from the plasma; cited from earlier work
smiles,measurement,value
CC[C@]1(O)C[C@H]2CN(CCc3c([nH]c4ccccc34)[C@@](C(=O)OC)(c3cc4c(cc3OC)N(C=O)[C@H]3[C@@](O)(C(=O)OC)[C@H](OC(C)=O)[C@]5(CC)C=CCN6CC[C@]43[C@@H]65)C2)C1 [Vincristine],terminal half-life,about 24 hours
